According to patent US5444151A, “Platelet derived growth factor antagonists” (Ludwig Institute for Cancer Research, priority 1992, dated 1995):

Biological target: PDGF-β receptor (Homo sapiens, UniProt P09619)
Experiment: β-receptor autophosphorylation and dimerization in PAE cells
Format: cell-based
Design: expressed in transfected cells; host or cells: PAE cells
Settings: conditioned media, 90 minutes at 4° C., BS3 crosslinking
Protocol: It was important to determine whether the binding of monomeric PDGF to PDGF receptors induced agonistic or antagonistic effects. The PDGF-mono B molecule was therefore tested for its ability to activate β-receptor in an autophosphorylation assay. Conditioned media from cultures of COS cells transfected with pSV B stop, pSV monoB or from mock transfected cells were desalted and concentrated as described supra. A radio receptor assay was carried out to determine receptor binding activity, using standard techniques. Once this was accomplished, media from pSV monoB or pSV monoB stop transfected cells were adjusted with mock transfected medium to receptor binding activity of 100 ng/ml. PAE cells expressing PDGF B receptors (Westermark et al., Proc Natl. Acad. Sci. USA 87: 128-132 (1990)), grown in 25 cm^2 dishes were labeled in serum and methionine free MCDB 104 medium supplemented with 0.1 mg/ml BSA and 0.1 ml [^35 S] methionine/ml for three hours at 37° C. Cells were stimulated with 1 ml of different concentrations of conditioned media for 30 minutes at 4° C. A positive control was set up using 1 ml of mock transfected medium with 100 ng/ml of recombinant PDGF-BB. […] Immunocomplexes were analyzed by SDS-gel electrophoresis, using a 7% acrylamide gel and fluorography. […]

For “PDGF-BB: platelet derived growth factor B chain homodimer”, the “Dimerization of the β receptor (in words)” value was “caused dimerization”.
